Measurements taken from US20230116602A1, “MCL1 INHIBITORS AND USES THEREOF” (California Institute of Technology, priority 2019, published 2023).
Where two headings read alike, the source gives them in different places.

Protein sequences, listed by entry. Tags and fused reporters are not part of them.
UniProt P10415, whole entry: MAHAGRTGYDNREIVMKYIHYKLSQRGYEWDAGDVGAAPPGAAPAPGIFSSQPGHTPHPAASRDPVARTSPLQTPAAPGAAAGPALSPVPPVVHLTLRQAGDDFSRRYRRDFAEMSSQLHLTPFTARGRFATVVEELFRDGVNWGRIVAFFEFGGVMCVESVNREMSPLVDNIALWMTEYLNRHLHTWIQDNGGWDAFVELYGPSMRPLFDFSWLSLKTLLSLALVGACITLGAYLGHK
UniProt Q07820, whole entry: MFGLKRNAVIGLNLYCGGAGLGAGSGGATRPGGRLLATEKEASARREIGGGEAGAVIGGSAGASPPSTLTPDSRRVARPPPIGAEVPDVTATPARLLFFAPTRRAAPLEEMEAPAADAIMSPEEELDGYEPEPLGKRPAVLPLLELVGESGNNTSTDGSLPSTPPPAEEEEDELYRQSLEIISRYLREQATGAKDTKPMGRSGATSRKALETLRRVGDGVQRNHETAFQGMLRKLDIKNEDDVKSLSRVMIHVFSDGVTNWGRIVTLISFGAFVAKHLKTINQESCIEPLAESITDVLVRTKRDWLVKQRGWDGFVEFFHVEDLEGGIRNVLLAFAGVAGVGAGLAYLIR
UniProt Q07817, whole entry: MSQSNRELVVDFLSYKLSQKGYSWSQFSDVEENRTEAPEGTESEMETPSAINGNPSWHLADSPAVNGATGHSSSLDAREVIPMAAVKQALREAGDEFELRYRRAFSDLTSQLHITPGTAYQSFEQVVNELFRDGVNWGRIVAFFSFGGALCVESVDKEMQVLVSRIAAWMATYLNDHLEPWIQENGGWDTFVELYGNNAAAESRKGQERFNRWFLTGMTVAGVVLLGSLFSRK

Assays:
[1] = tested on: drug-sensitive cell lines of Table 3; assay: Cell line growth retardation assay, sensitive cohort; settings: for Fold Diff: average IC50 of resistant cohort divided by average IC50 of sensitive cohort; for IC50: read-out: AvgSen IC50, arithmetic mean of IC50s over the sensitive cohort of Table 3, 6 days growth
Description: (§1) Cells were seeded at densities of 1,000-5,000 cells per well in 48-well tissue culture plates. After a 24 h rest period, cells were treated with compound at 10 μM, 1 μM, […], 0.08 μM, 0.016 μM, and 0.0032 μM. A group of cells were treated with the vehicle in which the compound was prepared and served as a control. Prior to treatment, cells were counted and this count was used as a baseline for the calculation of growth inhibition. The cells were grown in the presence of compounds for 6 days and were counted on day 6. All cell counting was performed using a Synentec Cellavista plate imager. Growth inhibition was calculated as a ratio of cell population doublings in the presence of compound versus the absence of compound. […] IC50 values for each compound were calculated by fitting curves to data points from each dose-response assay using the Proc NLIN function in SAS for Windows version 9.2 (SAS Institute, Inc.).
(§2) Human cancer cell lines were grouped as “sensitive” or “resistant” to MCL1 inhibition based on whether their growth was retarded by AMG-176 (i.e., (1′S,11R,12S,14E,16S,16aR,18aR)-6′-Chloro-3′,4′,12,13,16,16a,17,18,18a,19-decahydro-16-methoxy-11,12-dimethyl-,Spiro[5,7-etheno-1H,11H-cyclobut[i][1,4]oxazepino[3,4-f][1,2,7]thiadiazacyclohexadecine-2(3H),1′(2′H)-naphthalen]-8(9H)-one 10,10-dioxide) or MIK665 (i.e., (R)-2-((5-(3-chloro-2-methyl-4-(2-(4-methylpiperazin-1-yl)ethoxy)phenyl)-6-(4-fluorophenyl)thieno[2,3-d]pyrimidin-4-yl)oxy)-3-(2-((2-(2-methoxyphenyl)pyrimidin-4-yl)methoxy)phenyl)propanoic acid) (data not shown; see Table 3). These sensitive and resistant cohorts were interrogated for response to each compound, and IC50S were calculated for each cell line using the same technique described above. Average IC50S for the sensitive (“AvgSen IC50”) and resistant (“AvgRes IC50”) cohorts were calculated as arithmetic means of the group, and fold differences (“Fold Diff”) between the resistant and sensitive cohorts were calculated by diving the average IC50 for the resistant cohort by the average IC50 for the sensitive cohort. “A” represents an IC50 of 1 μM or less, “B” represents an IC50 of greater than 1 μM to 5 μM, “C” represents an IC50 of greater than 5 μM, “+” represents a fold difference of 10 or more, and “−” represents a fold difference less than 10.

BCL2 = BCL2 (Homo sapiens, UniProt P10415); assay: BCL2 affinity assay (competition binding, qPCR readout); settings: read-out: BCL2 Kd; recombinant BCL2, 11-point 3-fold dilution series
Description: (§3) Recombinant MCL1, BCL2 and BCXL proteins were prepared in either an E. coli host derived from the BL21 strain or in HEK-293 cells. The recombinant proteins were subsequently tagged with DNA for qPCR detection. Streptavidin-coated magnetic beads were treated for 30 minutes at room temperature with the respective biotinylated peptide ligands for each recombinant protein to generate affinity resins for the assays. The liganded beads were blocked with excess biotin and washed with blocking buffer (SeaBlock (Pierce), 1% BSA, 0.05% Tween 20, 1 mM DTT) to remove unbound ligand and to reduce nonspecific binding. Binding reactions were assembled by combining recombinant protein, liganded affinity beads, and test compounds in 1× binding buffer (20% SeaBlock, 0.17×PBS, 0.05% Tween 20, 6 mM DTT). Test compounds were prepared as 111X stocks in 100% DMSO. The compounds were then diluted directly into the assays such that the final concentration of DMSO was 0.9%. The assay plates were incubated at room temperature with shaking for 1 hour and the affinity beads were washed with wash buffer (1×PBS, 0.05% Tween 20). […] The recombinant protein concentration in the eluates was measured by qPCR. Kds were determined using an 11-point 3-fold compound dilution series with three DMSO control points. […]

MCL1 = MCL1 (Homo sapiens, UniProt Q07820); assay: MCL1 affinity assay (competition binding, qPCR readout); settings: read-out: MCL1 Kd, recombinant MCL1, 11-point 3-fold dilution series
Description: Recombinant MCL1, BCL2 and BCXL proteins were prepared in either an E. coli host derived from the BL21 strain or in HEK-293 cells. The recombinant proteins were subsequently tagged with DNA for qPCR detection. Streptavidin-coated magnetic beads were treated for 30 minutes at room temperature with the respective biotinylated peptide ligands for each recombinant protein to generate affinity resins for the assays. The liganded beads were blocked with excess biotin and washed with blocking buffer (SeaBlock (Pierce), 1% BSA, 0.05% Tween 20, 1 mM DTT) to remove unbound ligand and to reduce nonspecific binding. Binding reactions were assembled by combining recombinant protein, liganded affinity beads, and test compounds in 1× binding buffer (20% SeaBlock, 0.17×PBS, 0.05% Tween 20, 6 mM DTT). Test compounds were prepared as 111X stocks in 100% DMSO. The compounds were then diluted directly into the assays such that the final concentration of DMSO was 0.9%. The assay plates were incubated at room temperature with shaking for 1 hour and the affinity beads were washed with wash buffer (1×PBS, 0.05% Tween 20). The beads were then re-suspended in elution buffer (1×PBS, 0.05% Tween 20, 0.5 μM non-biotinylated affinity ligand) and incubated at room temperature with shaking for 30 minutes. The recombinant protein concentration in the eluates was measured by qPCR. Kds were determined using an 11-point 3-fold compound dilution series with three DMSO control points. “A*” represents a Kd of 100 nM or less, “A” represents a Kd of 101 nM to 500 nM, “B” represents a Kd of 501 nM to 1,500 nM, and “C” represents a Kd of greater than 1,500 nM.

[2] = tested on: drug-resistant cell lines of Table 3; assay: Cell line growth retardation assay, resistant cohort; settings: read-out: AvgRes IC50, arithmetic mean of IC50s over the resistant cohort of Table 3, 6 days growth
Description: as §1, §2

BCLXL = BCLXL (Homo sapiens, UniProt Q07817); assay: BCLXL affinity assay (competition binding, qPCR readout); settings: read-out: BCLXL Kd; recombinant BCLXL, 11-point 3-fold dilution series
Description: as §3

[3] = tested form: possibly trifluoroacetate (inferred only)

| Compound | Fold Diff [1] | IC50 [1] [µM] | Kd (BCL2) [µM] | Kd (MCL1) [µM] | IC50 [2] [µM] | Kd (BCLXL) [µM] | Fold Diff [1, 3] | IC50 [1, 3] [µM] | Kd (MCL1; [3]) [µM] | IC50 [2, 3] [µM] |
| --- | --- | --- | --- | --- | --- | --- | --- | --- | --- | --- |
| COc1ccc(COc2ccccc2C[C@@H](Oc2nsc3cnc(-c4ccc(F)cc4)c(-c4ccc(OCCN5CCN(C)CC5)c(Cl)c4C)c23)C(=O)O)cc1 | − (“−” represents a fold difference less than 10) | 1 to 5 | > 1.5 | > 1.5 | > 5 | > 1.5 |  |  |  |  |
| COc1ccccc1-c1nccc(COc2ccccc2C[C@@H](Oc2nsc3cnc(-c4cnn(CC5CC5)c4)c(-c4ccc(OCCN5CCN(C)CC5)c(Cl)c4C)c23)C(=O)O)n1 | − (“−” represents a fold difference less than 10) | 1 to 5 |  | 0.501 to 1.5 | > 5 |  |  |  |  |  |
| Cc1c(-c2c(-c3cccc4c3CCCC4)ncc3snc(O[C@H](Cc4ccccc4OCc4ccnn4CC(F)(F)F)C(=O)O)c23)ccc(OCCN2CCN(C)CC2)c1Cl | − (“−” represents a fold difference less than 10) | > 5 | > 1.5 | > 1.5 | > 5 | > 1.5 |  |  |  |  |
| COc1ccccc1-c1nccc(COc2ccccc2C[C@@H](Oc2nsc3cnc(-c4ccc(CCc5ccn(C)n5)cc4)c(-c4ccc(OCCN5CCN(C)CC5)c(Cl)c4C)c23)C(=O)O)n1 | + (“+” represents a fold difference of 10 or more) | < 1 |  | < 0.1 | > 5 |  |  |  |  |  |
| COc1cccc(-c2ncc3snc(O[C@H](Cc4ccccc4OCc4ccnc(N5CCC(F)(F)CC5)n4)C(=O)O)c3c2-c2ccc(OCCN3CCN(C)CC3)c(Cl)c2C)c1 |  |  |  |  |  |  | − (“−” represents a fold difference less than 10) | 1 to 5 | > 1.5 | > 5 |
